ChEMBL document CHEMBL5576105, “Synthesis and biological evaluation of O4'-benzyl-hispidol derivatives and analogs as dual monoamine oxidase-B inhibitors and anti-neuroinflammatory agents” (Bioorg Med Chem, 2024)

Amino acid sequences for entries named in this document (tags omitted).
UniProt P27338, whole entry: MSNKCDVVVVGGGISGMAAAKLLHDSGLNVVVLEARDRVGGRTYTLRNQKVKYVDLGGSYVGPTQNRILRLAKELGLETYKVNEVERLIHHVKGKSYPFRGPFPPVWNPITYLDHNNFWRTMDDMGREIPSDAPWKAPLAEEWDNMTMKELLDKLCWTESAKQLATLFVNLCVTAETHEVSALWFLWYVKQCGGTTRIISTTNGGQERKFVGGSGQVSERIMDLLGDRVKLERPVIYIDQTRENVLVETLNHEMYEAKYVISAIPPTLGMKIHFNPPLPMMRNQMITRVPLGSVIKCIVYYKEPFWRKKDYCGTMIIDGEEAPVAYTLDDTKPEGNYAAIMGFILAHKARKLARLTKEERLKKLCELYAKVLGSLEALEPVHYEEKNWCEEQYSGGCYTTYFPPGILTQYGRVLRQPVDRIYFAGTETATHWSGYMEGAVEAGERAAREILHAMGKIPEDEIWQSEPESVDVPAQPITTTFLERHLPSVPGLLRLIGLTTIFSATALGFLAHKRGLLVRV

How the values were obtained:
Homo sapiens = species on record: Homo sapiens; assay: Selectivity index, ratio of IC50 for inhibition of human recombinant MAO-A to IC50 for inhibition of human recombinant MAO-B expressed in baculovirus-infected BTI cells
[1] = biological target: Amine oxidase [flavin-containing] B (Homo sapiens, UniProt P27338); assay: Inhibition of human recombinant MAO-B expressed in baculovirus-infected BTI cells using benzylamine as substrate preincubated with enzyme for 15 mins followed by substrate addition and measured after 20 mins by Amplex Red reagent based fluorescence analysis

IC50 [1]: > 10 µM
SMILES: O=C1/C(=C/c2ccc(O)cc2)Oc2cc(O)ccc21
Ratio IC50 (Homo sapiens): < 0.53
